This is an account of results in patent US20040259866A1, “Calcium channel blockers comprising two benzhydril moieties” (priority 1998, published 2004).

Protein sequences, listed by entry. Tags and fused reporters are not part of them.
UniProt Q02294, whole entry: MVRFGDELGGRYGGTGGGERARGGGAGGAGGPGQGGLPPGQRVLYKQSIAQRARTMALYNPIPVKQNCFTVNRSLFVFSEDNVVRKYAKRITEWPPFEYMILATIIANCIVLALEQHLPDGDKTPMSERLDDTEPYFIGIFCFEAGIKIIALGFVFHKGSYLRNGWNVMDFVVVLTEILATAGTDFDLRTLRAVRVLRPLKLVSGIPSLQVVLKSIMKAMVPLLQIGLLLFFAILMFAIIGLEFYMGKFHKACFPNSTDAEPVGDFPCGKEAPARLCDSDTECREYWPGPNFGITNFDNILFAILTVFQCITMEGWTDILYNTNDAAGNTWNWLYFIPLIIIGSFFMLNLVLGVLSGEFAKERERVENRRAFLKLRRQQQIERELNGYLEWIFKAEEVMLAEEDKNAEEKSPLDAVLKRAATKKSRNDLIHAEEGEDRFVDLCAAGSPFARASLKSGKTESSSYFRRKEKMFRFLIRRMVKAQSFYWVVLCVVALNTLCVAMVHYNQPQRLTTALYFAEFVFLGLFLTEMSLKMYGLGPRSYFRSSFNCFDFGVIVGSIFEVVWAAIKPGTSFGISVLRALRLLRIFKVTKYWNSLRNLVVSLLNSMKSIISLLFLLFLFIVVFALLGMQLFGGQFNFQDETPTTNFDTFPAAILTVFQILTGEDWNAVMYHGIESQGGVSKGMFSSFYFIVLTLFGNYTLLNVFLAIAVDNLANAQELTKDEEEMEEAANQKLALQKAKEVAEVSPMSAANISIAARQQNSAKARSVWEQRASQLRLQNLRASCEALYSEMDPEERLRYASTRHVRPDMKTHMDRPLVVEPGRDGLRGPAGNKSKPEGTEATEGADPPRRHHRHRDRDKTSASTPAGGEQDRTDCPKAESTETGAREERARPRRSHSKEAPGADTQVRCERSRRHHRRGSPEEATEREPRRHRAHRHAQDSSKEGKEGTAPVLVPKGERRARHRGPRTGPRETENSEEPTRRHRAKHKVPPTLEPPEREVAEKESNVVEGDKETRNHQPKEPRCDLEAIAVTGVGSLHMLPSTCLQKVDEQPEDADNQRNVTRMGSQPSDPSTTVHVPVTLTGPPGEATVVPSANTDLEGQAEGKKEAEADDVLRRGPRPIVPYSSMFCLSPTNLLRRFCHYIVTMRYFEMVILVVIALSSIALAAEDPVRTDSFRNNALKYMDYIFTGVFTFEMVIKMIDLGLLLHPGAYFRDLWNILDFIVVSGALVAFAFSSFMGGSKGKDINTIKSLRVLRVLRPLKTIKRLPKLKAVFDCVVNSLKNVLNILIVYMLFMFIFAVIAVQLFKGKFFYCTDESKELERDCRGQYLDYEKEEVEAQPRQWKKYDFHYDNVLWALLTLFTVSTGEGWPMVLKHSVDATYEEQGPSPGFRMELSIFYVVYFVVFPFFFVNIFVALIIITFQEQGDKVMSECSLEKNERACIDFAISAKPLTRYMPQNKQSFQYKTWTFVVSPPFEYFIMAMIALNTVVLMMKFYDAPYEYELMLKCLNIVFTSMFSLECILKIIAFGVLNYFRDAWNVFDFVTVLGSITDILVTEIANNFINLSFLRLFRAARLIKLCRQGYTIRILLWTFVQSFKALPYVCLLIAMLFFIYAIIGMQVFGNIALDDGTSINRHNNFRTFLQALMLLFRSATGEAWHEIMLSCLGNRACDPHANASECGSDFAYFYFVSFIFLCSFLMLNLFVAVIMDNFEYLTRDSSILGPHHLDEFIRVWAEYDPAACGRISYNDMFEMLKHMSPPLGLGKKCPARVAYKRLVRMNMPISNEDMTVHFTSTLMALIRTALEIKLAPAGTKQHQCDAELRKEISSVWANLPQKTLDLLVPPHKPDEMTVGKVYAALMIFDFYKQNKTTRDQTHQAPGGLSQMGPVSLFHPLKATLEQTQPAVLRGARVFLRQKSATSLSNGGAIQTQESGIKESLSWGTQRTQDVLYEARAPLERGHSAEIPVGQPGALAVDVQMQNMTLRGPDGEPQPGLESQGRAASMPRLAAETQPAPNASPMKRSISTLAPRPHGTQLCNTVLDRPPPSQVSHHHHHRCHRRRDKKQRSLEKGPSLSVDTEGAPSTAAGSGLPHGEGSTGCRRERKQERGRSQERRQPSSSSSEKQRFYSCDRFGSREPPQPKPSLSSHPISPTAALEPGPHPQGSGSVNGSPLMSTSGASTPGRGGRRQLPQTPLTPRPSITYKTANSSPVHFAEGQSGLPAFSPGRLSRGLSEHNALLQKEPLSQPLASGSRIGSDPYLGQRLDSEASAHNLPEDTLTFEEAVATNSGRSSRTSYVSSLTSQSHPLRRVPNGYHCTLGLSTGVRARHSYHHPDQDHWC
UniProt O43497, whole entry: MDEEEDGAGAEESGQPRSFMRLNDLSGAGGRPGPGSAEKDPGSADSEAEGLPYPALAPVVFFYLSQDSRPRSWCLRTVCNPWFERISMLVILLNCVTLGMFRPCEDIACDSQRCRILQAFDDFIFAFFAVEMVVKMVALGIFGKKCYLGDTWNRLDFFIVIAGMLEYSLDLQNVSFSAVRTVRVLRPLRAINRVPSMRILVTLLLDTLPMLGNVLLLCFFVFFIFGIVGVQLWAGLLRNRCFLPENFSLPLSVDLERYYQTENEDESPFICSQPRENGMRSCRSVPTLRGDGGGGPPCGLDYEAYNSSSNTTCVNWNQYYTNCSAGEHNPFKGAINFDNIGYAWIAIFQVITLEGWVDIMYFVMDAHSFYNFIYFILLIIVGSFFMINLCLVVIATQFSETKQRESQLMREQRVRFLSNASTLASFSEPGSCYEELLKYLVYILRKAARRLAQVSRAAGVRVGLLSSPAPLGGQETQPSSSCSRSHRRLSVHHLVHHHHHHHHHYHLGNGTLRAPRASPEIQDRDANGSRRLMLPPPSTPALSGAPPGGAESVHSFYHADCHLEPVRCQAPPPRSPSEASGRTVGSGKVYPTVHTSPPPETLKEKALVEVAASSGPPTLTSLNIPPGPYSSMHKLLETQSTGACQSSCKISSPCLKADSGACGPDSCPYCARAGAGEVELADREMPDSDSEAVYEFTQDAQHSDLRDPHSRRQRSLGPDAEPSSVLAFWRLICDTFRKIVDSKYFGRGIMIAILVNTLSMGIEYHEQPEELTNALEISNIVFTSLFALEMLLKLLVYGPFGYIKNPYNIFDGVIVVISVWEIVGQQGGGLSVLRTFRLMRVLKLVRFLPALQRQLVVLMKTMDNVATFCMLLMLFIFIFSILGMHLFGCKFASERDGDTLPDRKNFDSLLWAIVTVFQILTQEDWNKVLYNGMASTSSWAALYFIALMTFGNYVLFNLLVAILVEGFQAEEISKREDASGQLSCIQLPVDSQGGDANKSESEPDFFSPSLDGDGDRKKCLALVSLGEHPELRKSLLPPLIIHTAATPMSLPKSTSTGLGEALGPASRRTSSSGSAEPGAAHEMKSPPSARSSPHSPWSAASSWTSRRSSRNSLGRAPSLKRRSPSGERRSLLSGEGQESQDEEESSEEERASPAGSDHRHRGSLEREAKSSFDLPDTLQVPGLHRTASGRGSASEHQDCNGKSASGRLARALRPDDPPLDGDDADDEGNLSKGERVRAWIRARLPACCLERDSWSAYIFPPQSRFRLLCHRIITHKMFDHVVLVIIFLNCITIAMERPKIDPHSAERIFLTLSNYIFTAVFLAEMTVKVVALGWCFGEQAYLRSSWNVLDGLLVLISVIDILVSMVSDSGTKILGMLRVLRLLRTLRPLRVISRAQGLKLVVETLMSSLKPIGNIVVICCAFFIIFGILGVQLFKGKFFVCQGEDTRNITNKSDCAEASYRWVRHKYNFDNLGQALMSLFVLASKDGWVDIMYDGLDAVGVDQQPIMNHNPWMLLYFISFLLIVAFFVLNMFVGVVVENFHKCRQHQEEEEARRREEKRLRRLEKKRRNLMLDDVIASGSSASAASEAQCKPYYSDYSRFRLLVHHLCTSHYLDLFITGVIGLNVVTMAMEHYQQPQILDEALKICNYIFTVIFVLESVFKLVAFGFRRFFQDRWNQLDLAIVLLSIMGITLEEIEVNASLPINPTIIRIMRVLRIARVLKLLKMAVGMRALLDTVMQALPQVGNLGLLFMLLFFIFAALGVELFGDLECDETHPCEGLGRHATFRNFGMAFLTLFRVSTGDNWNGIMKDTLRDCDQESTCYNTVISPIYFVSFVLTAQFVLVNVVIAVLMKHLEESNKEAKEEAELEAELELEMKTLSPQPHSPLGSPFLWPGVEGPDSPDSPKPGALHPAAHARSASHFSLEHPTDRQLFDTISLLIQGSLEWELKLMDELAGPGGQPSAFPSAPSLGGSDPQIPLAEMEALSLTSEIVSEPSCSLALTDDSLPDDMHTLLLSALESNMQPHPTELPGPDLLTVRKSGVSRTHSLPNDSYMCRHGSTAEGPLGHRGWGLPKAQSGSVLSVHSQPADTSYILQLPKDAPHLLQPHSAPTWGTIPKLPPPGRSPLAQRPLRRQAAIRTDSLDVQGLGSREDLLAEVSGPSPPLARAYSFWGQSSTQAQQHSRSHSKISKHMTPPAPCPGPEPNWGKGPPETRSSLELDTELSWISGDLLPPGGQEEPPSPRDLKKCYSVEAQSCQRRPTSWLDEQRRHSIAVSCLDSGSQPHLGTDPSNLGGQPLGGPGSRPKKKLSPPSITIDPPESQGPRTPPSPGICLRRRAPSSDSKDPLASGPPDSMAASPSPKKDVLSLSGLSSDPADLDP

pIC50: −log10 of the molar value. Like-named read-outs stand apart in the source and are kept apart here.

Experiment [1] addresses rat α1B+α2b+β1b channels (N-type channels) (Rattus norvegicus, UniProt Q02294). Nature of the experiment: Block of α1B N-type channels, whole cell patch recordings (Example 6). The settings on record: HEK 293, 5 mM barium as charge carrier.
The target of experiment [2] is human α1G subunits (T-type channels) (Homo sapiens, UniProt O43497). The experiment in a line: Block of α1G T-type channels, patch clamp in HEK cell lines (Example 8). In general terms: In patch-clamp work, channel activity is measured electrically.

What is called pIC50 is −log10 of the IC50, conventionally taken in molar units. Turning to `NC(=O)C1CN(C(c2ccccc2)c2ccccc2)CCN1C(=O)CC(c1ccccc1)c1ccccc1` (stereo not shown), the pIC50 in experiment [1] (read-out: Block of α1B N-type Channels IC50, 0.067 Hz, 0.067 Hz) was 6.44; in experiment [1] (read-out: Block of α1B N-type Channels IC50, 0.2 Hz, 0.2 Hz), 6.51; in experiment [2] (read-out: Block of α1G T-type Channels IC50, 80 mV, 80 mV (inactivation protocol)) it was 6.34; in experiment [2] (read-out: Block of α1G T-type Channels IC50, 100 mV, 100 mV (non-inactivating protocol)), 5.59.
